Literature values in patent US7297691B2, “Treatment of sleep disorders with cholinesterase inhibitors” (priority 2003, dated 2007).
Like-named read-outs stand apart in the source and are kept apart here.

Protein sequences, listed by entry. Tags and fused reporters are not part of them. Residues count along the entry.
UniProt P06276, 29-602: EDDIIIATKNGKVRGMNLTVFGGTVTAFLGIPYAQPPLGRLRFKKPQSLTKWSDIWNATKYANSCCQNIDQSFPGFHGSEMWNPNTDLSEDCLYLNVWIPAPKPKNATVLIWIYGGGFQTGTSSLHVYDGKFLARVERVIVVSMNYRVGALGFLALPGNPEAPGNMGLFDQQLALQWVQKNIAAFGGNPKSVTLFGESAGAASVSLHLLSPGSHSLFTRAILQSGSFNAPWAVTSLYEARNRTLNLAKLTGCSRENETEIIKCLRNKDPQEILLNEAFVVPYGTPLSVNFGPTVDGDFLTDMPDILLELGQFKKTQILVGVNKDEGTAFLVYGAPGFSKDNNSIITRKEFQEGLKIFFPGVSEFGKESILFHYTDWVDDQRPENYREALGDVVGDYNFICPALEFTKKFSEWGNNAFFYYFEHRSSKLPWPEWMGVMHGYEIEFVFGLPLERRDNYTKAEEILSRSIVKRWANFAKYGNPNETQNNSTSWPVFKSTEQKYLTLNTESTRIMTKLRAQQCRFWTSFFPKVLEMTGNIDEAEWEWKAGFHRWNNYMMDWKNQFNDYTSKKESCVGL

Experiments:
[1] = molecular target: T1, butyrylcholinesterase in plasma (Homo sapiens, UniProt P06276); conditions: after 10 mg i.v. in a healthy volunteer; cited from earlier work
T1 construct: butyrylcholinesterase in plasma; from tissue; host or cells: plasma of a healthy volunteer after i.v. galantamine

[2] = in humans, cited from earlier work

Substance: [4aS-(4aα,6β,8aR*)]-4a,5,9,10 11,12-hexahydro-3-methoxy-11-methyl-6H-benzofuro[3a,3,2-ef][2]benzazepin-6-ol [Galantamine]
- inhibition of butyrylcholinesterase in plasma [1]: no inhibition
- passing the blood-brain barrier [2]: capable of passing
- passing the blood-brain barrier ([2]; listed as galantamine): capability to pass
